Test system: iPSCs
Assay: CHIR99021 preconditioning/supplementation during iPSC to hepatocyte differentiation
Format: cell-based, human
[1] = 3 μM during Stage 2, lines 54A, 89F, 01D1 (FIG. 11)

Cc1c[nH]c(-c2cnc(NCCNc3ccc(C#N)cn3)nc2-c2ccc(Cl)cc2Cl)n1 [CHIR99021]
AAT purity [1]: without impacting AAT purity | cell proliferation and AAT-positive cell yields [1]: increases cell proliferation and AAT-positive cell yields | effect on hepatocyte proliferation and differentiation efficiency (addition prior to DE induction): promote hepatocyte proliferation and differentiation efficiency | effect of introduction during Stage 1 (introduction during Stage 1): no positive effect | effect on cell morphology (introduction during Stage 2): no negative impact on cell morphology | effect on cell proliferation (introduction during Stage 2): beneficial effect on cell proliferation | effect on pluripotency markers (TRA181, POU5F1, NANOG) (pre-conditioning, during DE induction): downregulates pluripotency markers
